Assay results taken from PubChem BioAssay (NCI).
The list shows a part of the results, in another mix than the full data.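 Percent growth is the endpoint: 0 to 100 indicates growth inhibition (40 means 60% inhibition), 0 means no net growth, and negative values indicate cell death.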 Calls of active or inactive are those of the source. Rule for the calls: active = growth percent below 10; inactive = the rest.

Tests used:
Experiment in all cases: NCI-60 one-dose screen, 48 h (100 = growth as untreated, 0 = no growth, -100 = all killed)
[1] = system: HCT-15 colon; conditions: 10 µM unless noted
[2] = system: HT29 colon; conditions: 10 µM unless noted
[3] = system: SNB-75 CNS; conditions: 10 µM unless noted
[4] = system: SNB-19 CNS; conditions: 10 µM unless noted
[5] = system: U251 CNS; conditions: 10 µM unless noted
[6] = system: PC-3 prostate; conditions: 10 µM unless noted
[7] = system: SK-MEL-5 melanoma; conditions: 10 µM unless noted
[8] = system: UACC-62 melanoma; conditions: 10 µM unless noted
[9] = system: LOX IMVI melanoma; conditions: 10 µM
[10] = system: SK-MEL-28 melanoma; conditions: 10 µM unless noted
[11] = system: SK-MEL-2 melanoma; conditions: 10 µM unless noted
[12] = system: EKVX NSCLC; conditions: 10 µM unless noted
[13] = system: SN12C renal; conditions: 10 µM unless noted
[14] = system: UO-31 renal; conditions: 10 µM unless noted
[15] = system: TK-10 renal; conditions: 10 µM unless noted
[16] = system: ACHN renal; conditions: 10 µM unless noted
[17] = system: CAKI-1 renal; conditions: 10 µM unless noted
[18] = system: A498 renal; conditions: 10 µM unless noted
[19] = system: HL-60(TB) leukemia; conditions: 10 µM unless noted
[20] = system: CCRF-CEM leukemia; conditions: 10 µM unless noted

Measured: growth

O=[As](O)(c1ccccc1Br)c1ccccc1Br
inactive: [1] 99.2% | [2] 111% | [3] 101% | [4] 95.1% | [5] 111% | [6] 89.5% | [7] 105% | [8] 99.4% | [9] 94% | [10] 120% | [11] 104% | [12] 108% | [13] 95.1% | [14] 80.7% | [15] 107% | [16] 97.3% | [17] 102% | [18] 107% | [19] 65.4% | [20] 99.4%

O=S1(=O)CC(Sc2ccccc2)[C@@H](Cl)C1 (some centres undefined)
inactive: [1] 104% | [2] 102% | [3] 93.7% | [4] 104% | [5] 94.6% | [6] 92.6% | [7] 99.1% | [8] 102% | [9] 104% | [10] 119% | [11] 109% | [12] 104% | [13] 99.9% | [14] 92.1% | [15] 93.4% | [16] 121% | [17] 102% | [18] 82.8% | [19] 91.2% | [20] 98.8%

[N-]=[N+]=NS(=O)(=O)c1ccc([N+](=O)[O-])cc1
inactive: [1] 117% | [2] 107% | [3] 98.4% | [4] 110% | [5] 103% | [6] 93.6% | [7] 101% | [8] 101% | [9] 96.7% | [10] 106% | [11] 103% | [12] 101% | [13] 97.9% | [14] 92.9% | [15] 115% | [16] 108% | [17] 89.2% | [18] 85.2% | [19] 99.9%

CCOP(=O)(Nc1ccccc1)OCC
inactive: [1] 101% | [2] 103% | [3] 94% | [4] 92% | [5] 99% | [6] 94.4% | [7] 103% | [8] 82.3% | [9] 98.1% | [10] 117% | [11] 101% | [12] 113% | [13] 104% | [14] 82.1% | [15] 101% | [16] 102% | [17] 102% | [18] 95.2% | [19] 104% | [20] 96.5%

CCN(CCCl)C(Cc1ccccc1)c1ccccc1 (centres undefined)
inactive: [1] 101% | [2] 84.1% | [3] 99.9% | [4] 97.5% | [5] 92.9% | [6] 88.8% | [7] 99.9% | [8] 78.4% | [9] 97.9% | [10] 106% | [11] 101% | [12] 108% | [13] 92.4% | [14] 89.6% | [15] 90.6% | [16] 108% | [17] 101% | [18] 78.3% | [19] 73.8% | [20] 103%

CN(C)P(=O)(N(C)C)n1c(Nc2ccccc2)nnc1-c1ccccc1
inactive: [1] 99.6% | [2] 84.3% | [3] 82.3% | [4] 95.7% | [5] 98.9% | [6] 86.7% | [7] 98.1% | [8] 78.6% | [9] 94.2% | [10] 105% | [11] 110% | [12] 102% | [13] 95.7% | [14] 86.6% | [15] 108% | [16] 103% | [17] 100% | [18] 88.6% | [19] 102% | [20] 99.1%

COC(=O)c1ccc(N2CCOP2(=O)Cl)cc1O (centres undefined)
inactive: [1] 99.9% | [2] 98.1% | [3] 85.8% | [4] 109% | [5] 96.7% | [6] 96.9% | [7] 104% | [8] 106% | [9] 118% | [10] 97.6% | [11] 105% | [12] 101% | [13] 108% | [14] 89.3% | [15] 105% | [16] 99.8% | [17] 104% | [18] 108% | [19] 89.6% | [20] 87.1%

COc1cc([N+](=O)[O-])c(Nc2ccc(Cl)cc2[N+](=O)[O-])c([N+](=O)[O-])c1
inactive: [1] 30.3% | [2] 48.5% | [3] 63.9% | [4] 89.1% | [5] 70.6% | [6] 57.6% | [7] 74.2% | [8] 59.7% | [9] 40.7% | [10] 98.7% | [11] 87.1% | [12] 59.4% | [13] 43.8% | [14] 52.3% | [15] 68.1% | [16] 56.2% | [17] 42.2% | [18] 181% | [19] 65.8% | [20] 65.3%

CCOC(=O)N1CCN(CCCl)CC1
inactive: [1] 96.1% | [2] 102% | [3] 82.4% | [4] 123% | [5] 103% | [6] 99% | [7] 99.4% | [8] 107% | [9] 105% | [10] 104% | [11] 102% | [12] 91.9% | [13] 107% | [14] 91% | [15] 100% | [16] 106% | [17] 91.3% | [18] 94.5% | [19] 119% | [20] 118%

ClCCNCC1COc2ccccc2O1 (centres undefined)
inactive: [1] 105% | [2] 95.8% | [3] 97.7% | [4] 104% | [5] 94% | [6] 98.1% | [7] 99.4% | [8] 97.6% | [9] 96.7% | [10] 112% | [11] 103% | [12] 102% | [13] 101% | [14] 85.9% | [15] 93.1% | [16] 106% | [17] 96.9% | [18] 80.9% | [19] 107% | [20] 102%

CCN(CCCl)c1ccc(CCC(=O)O)cc1
inactive: [1] 97.1% | [2] 88.3% | [3] 96.4% | [4] 95.4% | [5] 92% | [6] 91.7% | [7] 99.9% | [8] 64.4% | [9] 99.8% | [10] 104% | [11] 91.8% | [12] 101% | [13] 82% | [14] 91.2% | [15] 92% | [16] 106% | [17] 99.9% | [18] 93.2% | [19] 80.8% | [20] 102%

O=[As](O)(c1ccc(Cl)cc1)C1CCCCC1O (centres undefined)
inactive: [1] 88.3% | [2] 92.2% | [3] 85.6% | [4] 102% | [5] 91.3% | [6] 72.7% | [7] 90.9% | [8] 92.5% | [9] 96.6% | [10] 103% | [11] 105% | [12] 109% | [13] 96% | [14] 72.1% | [15] 117% | [16] 103% | [17] 93.9% | [18] 107% | [19] 42.1% | [20] 100%

CCN(CCCl)Cc1ccccc1
inactive: [1] 96.5% | [2] 92.1% | [3] 76.8% | [4] 103% | [5] 77.2% | [6] 83.3% | [7] 108% | [8] 98.1% | [9] 106% | [10] 104% | [11] 91.1% | [12] 113% | [13] 95% | [14] 89.2% | [15] 101% | [16] 101% | [17] 115% | [18] 99.8% | [19] 88.5% | [20] 82.3%

O=[N+]([O-])c1cc(Oc2ccc([N+](=O)[O-])cc2C(F)(F)F)cc([N+](=O)[O-])c1
inactive: [1] 91.9% | [2] 103% | [3] 91.7% | [4] 94.6% | [5] 98.5% | [6] 90.1% | [7] 83.1% | [8] 85.2% | [9] 88% | [10] 115% | [11] 93.1% | [12] 109% | [13] 88.7% | [14] 65.6% | [15] 114% | [16] 108% | [17] 92.9% | [18] 62.4% | [19] 51.8% | [20] 90.8%

O=C(O[C@H]1CN2CCC1CC2)C1NCc2ccccc2[C@@H]1c1ccccc1 (some centres undefined)
inactive: [1] 93.6% | [2] 72.1% | [3] 74.9% | [4] 102% | [5] 99% | [6] 88.2% | [7] 90% | [8] 100% | [9] 96.5% | [10] 110% | [11] 106% | [12] 90.2% | [13] 93.4% | [14] 62.6% | [15] 97.3% | [16] 96.7% | [17] 80.5% | [18] 121% | [19] 93.2% | [20] 91.7%
